This passage reports inhibition and pKB results from ChEMBL document CHEMBL1148390, “Structural analysis and optimization of NK(1) receptor antagonists through modulation of atropisomer interconversion properties” (J Med Chem, 2004).

By UniProt entry, the sequences of proteins in these tests, tags left out.
UniProt P79218, whole entry: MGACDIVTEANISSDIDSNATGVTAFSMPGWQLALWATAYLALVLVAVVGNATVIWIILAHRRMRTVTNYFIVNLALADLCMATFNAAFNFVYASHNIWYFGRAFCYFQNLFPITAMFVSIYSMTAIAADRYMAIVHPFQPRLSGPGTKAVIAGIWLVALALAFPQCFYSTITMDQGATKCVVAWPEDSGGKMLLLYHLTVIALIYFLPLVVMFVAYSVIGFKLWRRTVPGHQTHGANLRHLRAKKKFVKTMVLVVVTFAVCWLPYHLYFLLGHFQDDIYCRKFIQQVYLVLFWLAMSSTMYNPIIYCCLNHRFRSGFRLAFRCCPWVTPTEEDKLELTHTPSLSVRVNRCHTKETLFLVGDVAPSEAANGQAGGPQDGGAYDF

Each structure is given as a SMILES string.

In test [1] the test system is Substance-P receptor (Oryctolagus cuniculus). Particulars: Artery, 100 nM.
Test [2] shares this test system. The conditions noted are these: Artery, 10 nM.
In test [3] the test system is Substance-K receptor (Oryctolagus cuniculus).
Test [4] relates to Substance-P receptor (Oryctolagus cuniculus). The experiment in a line: In vitro binding affinity towards Tachykinin receptor 1 was determined using rabbit pulmonary artery tissues.
Test [5] addresses Substance-K receptor (Oryctolagus cuniculus) (UniProt P79218). The experiment in a line: In vitro binding affinity towards Tachykinin receptor 2 using rabbit pulmonary artery tissues. In short, it runs like this: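 Functional antagonism in isolated rabbit pulmonary artery (n = 2–6), reported as pKB. NK1 tested against agonist ASMSP with antagonist at 1 nM, or at 100 nM where antagonism was not purely competitive; NK2 tested against agonist BANK with antagonist at 1 μM. Where antagonism was not purely competitive, activity was taken as percent inhibition = 100 – maximum relaxation as % of control.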

For the compound `CCc1c(C#N)cc2ccccc2c1C(=O)N(C)C[C@@H](CCN1CCC(c2ccccc2[S@+](C)[O-])CC1)c1ccc(Cl)c(Cl)c1` (stereo in doubt; form 1), the inhibition is 89% in test [1] and under 10% in test [2]. The corresponding values for `CCc1c(C#N)cc2ccccc2c1C(=O)N(C)C[C@@H](CCN1CCC(c2ccccc2[S@+](C)[O-])CC1)c1ccc(Cl)c(Cl)c1` (stereo in doubt; form 2) are 98% and 73%. Compound `CCc1c(C#N)cc2ccccc2c1C(=O)N(C)C[C@@H](CCN1CCC(c2ccccc2[S@+](C)[O-])CC1)c1ccc(Cl)c(Cl)c1` (stereo in doubt; form 4) had an inhibition in test [1] of 51%. The same compound yielded a negative-log KB (pKB) in test [3] of 7.79. Compound `CCc1c(C#N)cc2ccccc2c1C(=O)N(C)C[C@@H](CCN1CCC(c2ccccc2[S@+](C)[O-])CC1)c1ccc(Cl)c(Cl)c1` (stereo in doubt; form 3) displayed an inhibition in test [1] of 22%. In test [4], `CN(C[C@@H](CCN1CCC(c2ccccc2[S@+](C)[O-])CC1)c1ccc(Cl)c(Cl)c1)C(=O)c1cc(C#N)cc2ccccc12` gave a pKB of 9.

For `COc1c(C#N)cc2ccccc2c1C(=O)N(C)C[C@@H](CCN1CCC(c2ccccc2[S@+](C)[O-])CC1)c1ccc(Cl)c(Cl)c1`, the values for the negative logarithm of the KB (pKB) in test [4] and in test [5] were 9.5 and 7.5, respectively. Turning to `CCc1c(C#N)cc2ccccc2c1C(=O)N(C)C[C@@H](CCN1CCC(c2ccccc2[S@+](C)[O-])CC1)c1ccc(Cl)c(Cl)c1` (stereo in doubt; 3), in test [4], the pKB amounted to 9.56. The compound further came in with an inhibition in test [1] of 62%.

One may read the inhibition as the relative decrease from the control value, in per cent. As usually defined, the pKB is the negative decadic logarithm of the KB, by convention in mol/L. Higher therefore signals a low KB.
